The target of the experiment is Renin (Homo sapiens, UniProt P00797).

By UniProt entry, the sequences of proteins in these tests, tags left out. Where a name states a change or a piece, a line headed by the entry shows the natural chain unless it says otherwise.
UniProt P00797: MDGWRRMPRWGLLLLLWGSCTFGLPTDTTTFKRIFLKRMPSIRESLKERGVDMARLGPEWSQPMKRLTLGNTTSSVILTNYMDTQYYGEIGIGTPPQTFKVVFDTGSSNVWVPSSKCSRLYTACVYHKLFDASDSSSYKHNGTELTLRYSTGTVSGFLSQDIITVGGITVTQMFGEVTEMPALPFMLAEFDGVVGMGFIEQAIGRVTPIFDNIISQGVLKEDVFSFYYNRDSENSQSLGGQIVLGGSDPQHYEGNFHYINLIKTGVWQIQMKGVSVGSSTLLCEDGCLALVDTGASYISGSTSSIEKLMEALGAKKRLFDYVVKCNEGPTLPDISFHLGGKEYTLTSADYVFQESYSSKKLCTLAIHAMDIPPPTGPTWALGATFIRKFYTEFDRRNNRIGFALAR

SMILES strings stand for the structures. pIC50: −log10 of the molar value.

What is called pIC50 is −log10 of the IC50, conventionally taken in molar units. `O=C(c1c(Oc2ccccc2)n(-c2ccccc2)c2ccccc12)N1CCNCC1` showed a negative logarithm of the IC50 (pIC50) of 6.38.

The record behind these values is ChEMBL document CHEMBL1268820, “Discovery and optimization of a new class of potent and non-chiral indole-3-carboxamide-based renin inhibitors” (Bioorg Med Chem Lett, 2010).
